Data on 1 compound can be found in patent US7582611B2, “Motilide compounds” (Pfizer Inc., priority 2005, dated 2009).

Chains of the proteins cited; added tags and fusions are not shown. Residues count along the entry.
UniProt G1T803, 1-400: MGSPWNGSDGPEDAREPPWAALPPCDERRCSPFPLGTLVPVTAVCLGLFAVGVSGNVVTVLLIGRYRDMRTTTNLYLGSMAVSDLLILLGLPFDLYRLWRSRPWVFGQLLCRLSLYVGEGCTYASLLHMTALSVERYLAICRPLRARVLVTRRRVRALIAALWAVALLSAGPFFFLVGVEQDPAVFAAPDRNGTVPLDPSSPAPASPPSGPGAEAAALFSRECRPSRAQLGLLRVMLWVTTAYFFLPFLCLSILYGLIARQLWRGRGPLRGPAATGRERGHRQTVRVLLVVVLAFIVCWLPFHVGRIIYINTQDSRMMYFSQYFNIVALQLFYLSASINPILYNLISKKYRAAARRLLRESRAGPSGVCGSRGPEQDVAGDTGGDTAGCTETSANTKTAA

In this assay the target is Motilin Receptor (Oryctolagus cuniculus, UniProt G1T803). The assay is described as follows: Tissue based assay for motilin agonist potency (rabbit duodenum contractility). Particulars: read-out: Motilin Receptor Agonist Activity (EC50); rabbit duodenum strips, contraction normalized to 1 μM carbachol.

In general, EC50 refers to the concentration giving half of the maximal effect.

Take `CC[C@H]1OC(=O)[C@H](C)[C@@H](O[C@H]2C[C@@](C)(OC)C[C@H](C)O2)[C@H](C)[C@@H](O[C@@H]2O[C@H](C)C[C@H](N(C)C(C)C)[C@H]2O)[C@](C)(O)C[C@@H](C)[C@H](OCC(N)=O)[C@H](C)[C@@H](O)[C@]1(C)O`: the EC50 came out at 36 nM.
